One may read the inhibition as the drop in the measured response relative to a control, in per cent.

Sequences of proteins named here, by UniProt entry; tags and fusion partners are left off.
UniProt O00206, whole entry, looked up: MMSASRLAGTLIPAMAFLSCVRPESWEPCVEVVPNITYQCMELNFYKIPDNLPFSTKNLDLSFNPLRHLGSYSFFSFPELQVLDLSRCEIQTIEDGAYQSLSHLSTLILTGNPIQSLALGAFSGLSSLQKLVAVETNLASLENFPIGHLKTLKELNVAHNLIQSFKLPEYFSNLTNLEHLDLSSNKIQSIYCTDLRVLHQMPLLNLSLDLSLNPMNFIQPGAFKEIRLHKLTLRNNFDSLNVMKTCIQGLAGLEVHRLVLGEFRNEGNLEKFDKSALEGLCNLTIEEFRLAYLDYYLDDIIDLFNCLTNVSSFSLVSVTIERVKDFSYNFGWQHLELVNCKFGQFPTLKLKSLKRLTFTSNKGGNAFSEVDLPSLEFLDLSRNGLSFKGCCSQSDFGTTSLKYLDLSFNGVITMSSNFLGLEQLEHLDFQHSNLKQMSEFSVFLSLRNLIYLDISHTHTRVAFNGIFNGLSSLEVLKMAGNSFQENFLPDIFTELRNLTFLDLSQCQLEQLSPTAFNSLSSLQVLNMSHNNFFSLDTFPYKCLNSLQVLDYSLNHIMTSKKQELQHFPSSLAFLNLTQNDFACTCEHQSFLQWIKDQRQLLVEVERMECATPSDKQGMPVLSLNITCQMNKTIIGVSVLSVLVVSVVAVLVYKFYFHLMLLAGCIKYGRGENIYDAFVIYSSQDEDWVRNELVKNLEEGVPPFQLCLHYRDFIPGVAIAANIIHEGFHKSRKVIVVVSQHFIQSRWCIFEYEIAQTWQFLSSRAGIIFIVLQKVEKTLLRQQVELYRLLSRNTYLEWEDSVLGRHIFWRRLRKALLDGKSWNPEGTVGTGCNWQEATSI
UniProt Q99836, whole entry, looked up: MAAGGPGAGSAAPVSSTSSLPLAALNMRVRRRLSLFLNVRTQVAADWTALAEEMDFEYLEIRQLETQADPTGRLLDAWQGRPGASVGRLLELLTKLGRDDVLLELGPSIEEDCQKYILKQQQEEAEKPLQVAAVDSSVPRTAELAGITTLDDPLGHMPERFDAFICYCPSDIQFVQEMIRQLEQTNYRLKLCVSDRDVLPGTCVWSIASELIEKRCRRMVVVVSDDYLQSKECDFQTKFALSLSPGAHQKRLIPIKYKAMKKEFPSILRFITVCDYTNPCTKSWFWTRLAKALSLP

The entries are a selection whose mix differs from that of the whole data set. The source made the active and inactive calls. No stated cut-off is given here; in the data, active means inhibition above about 25%; inactive means the rest.

For this experiment, the target named is Toll-like receptor 4 (Homo sapiens) + Myeloid differentiation primary response protein MyD88 (Homo sapiens) (UniProt O00206+Q99836). In words: disruptors of TLR4 binding to MyD88 – cell-based, HeLa CL3-4, BLA complementation, FRET ratio, primary screen (AID 861).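 Further: 0% = vehicle and 100% = reference inhibitor.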 As to conditions: HeLa CL3-4 TLR4/MyD88 BLA complementation, at 8.4 µM, stronger effect = higher value.
For the compound `O=[N+]([O-])c1ncn(CCn2ncnc2[N+](=O)[O-])n1`, the inhibition is inactive: -4.23%.

`CC1CCN(C(=O)Oc2c(Cl)cc(Cl)c3cccnc23)CC1`: the inhibition was inactive: -16.5%.

Take `CN(C)C(=O)OCCc1n(C)cc[n+]1C`: the inhibition is inactive: -1.67%.

As to `CC(C)=N/N=C(\N)N[N+](=O)[O-]`, the inhibition was inactive: 0.39%.

With `CCN(/C(=N/P(=O)(N1CCOCC1)N1CCOCC1)N1CCOCC1)c1ccc(OC)cc1`, the inhibition is inactive: -16.3%.

For the compound `CCc1nc2c(n1)c1c(non1O)c1c2no[n+]1[O-]`, the inhibition is inactive: 23.1%.

With `O=[N+]([O-])c1cc([N+](=O)[O-])c(CCNc2ccccc2)c([N+](=O)[O-])c1`, the inhibition is inactive: 11.7%.

As to `Cc1ccc(NP(=O)(Oc2ccccc2)Oc2ccccc2)nc1`, the inhibition was inactive: 4.61%.

On to `O=[N+]([O-])c1cccc2n[nH]nc12`, for which the inhibition is inactive: 10.5%.

In the case of `CC(=O)N1C2C3N(C(C)=O)C1C1N(C(C)=O)C(C(N1C(C)=O)N3C(C)=O)N2C(C)=O`, the inhibition was inactive: 1.65%.

Regarding `COc1ccc(C2=NCC(CBr)S2)cc1` (centres undefined), the inhibition was inactive: 6.48%.

As to `O=C(NC(Sc1ccncn1)C(Cl)(Cl)Cl)c1ccccc1` (centres undefined), the inhibition was inactive: -0.44%.

Turning to `Cc1c2non([O-])c-2c(C)[n+](=O)[n+]1[O-]`, the inhibition is active: 26%.

Regarding `Oc1ccccc1CNc1ccccn1`, the inhibition is inactive: -9.77%.

`CC(C)CC(=O)NC(Sc1ccc(Cl)cc1)C(Cl)(Cl)Cl` (centres undefined): the inhibition is inactive: -6.22%.

For the compound `CN1CCCC(OC(=O)C(c2ccccc2)c2ccccc2)C1` (centres undefined), the inhibition is inactive: 1.02%.

`Clc1ccc(Cl)c(NC2=NCC(CBr)S2)c1` (centres undefined): the inhibition is inactive: -0.55%.

For `COc1ccccc1OP(=O)(Nc1ccc(C)cn1)Oc1ccccc1OC`, the inhibition was inactive: -17.9%.

For `Cc1ccc(N/C(=N/P(=O)(N2CCOCC2)N2CCOCC2)N2CCOCC2)cc1`, the inhibition was inactive: 1.78%.

With `NC(=O)c1cc([N+](=O)[O-])cc([N+](=O)[O-])c1N`, the inhibition was inactive: 2.69%.

As for `CCN(N=Nc1nonc1N)c1nonc1N`, the inhibition was inactive: 4.26%.

On to `Cc1cc(SC(NC(=O)c2ccc(F)cc2)C(Cl)(Cl)Cl)ncn1` (centres undefined), for which the inhibition was inactive: -7.48%.

As for `CCOP(=O)(Nc1ccccc1)OCC`, the inhibition was inactive: 9.89%.

Consider `O=c1c2cc([N+](=O)[O-])ccc2[nH]c2c([N+](=O)[O-])cc([N+](=O)[O-])cc12`, for which the inhibition was inactive: 4.41%.

`CCC(=O)N1C2C3N(C(=O)CC)C1C1N(C(=O)CC)C(C(N1C(=O)CC)N3C(=O)CC)N2C(=O)CC`: the inhibition was inactive: -9.97%.

With `Cc1ccc(OP(=O)(Nc2ccccn2)Oc2ccc(C)cc2)cc1`, the inhibition was inactive: -12.3%.

On to `CC(=O)NC(SC(=S)N(CC(C)C)CC(C)C)C(Cl)(Cl)Cl` (centres undefined), for which the inhibition is inactive: -5.82%.

For the compound `COC(=O)c1cc2c(s1)N=C(c1ccccc1)N(C)P2(=O)N1CCOCC1` (centres undefined), the inhibition is inactive: 10.6%.

Regarding `CCOC(=O)NC(Sc1ccccc1)C(Cl)(Cl)Cl` (centres undefined), the inhibition was inactive: -3.82%.

Regarding `c1ccc(-c2nn[nH]n2)c(-c2nn[nH]n2)c1`, the inhibition is inactive: 12.9%.

In the case of `CCNC(=S)/N=C(\N)N[N+](=O)[O-]`, the inhibition was inactive: 16.4%.

`O=C(NC1CCS(=O)(=O)C1)NP(=S)(Oc1ccccc1)Oc1ccccc1` (centres undefined): the inhibition was inactive: 5.54%.

For `CC(=O)Nc1ccc(Oc2c([N+](=O)[O-])cc([N+](=O)[O-])cc2[N+](=O)[O-])cc1`, the inhibition is inactive: 6.79%.

In the case of `CC(C)(C)C(=O)NC(Sc1ccccc1)C(Cl)(Cl)Cl` (centres undefined), the inhibition was inactive: -5.26%.

`CCOc1ccc(C2=NCC(CBr)S2)cc1` (centres undefined): the inhibition is inactive: -4.28%.

On to `O=P1(Nc2nc3ccc(Cl)cc3s2)COc2ccccc2O1` (centres undefined), for which the inhibition is inactive: -1.44%.

As to `c1nnnn1CCn1cnnn1`, the inhibition was inactive: -20.7%.

For the compound `CC(C)C(=O)NC(Sc1ccccc1)C(Cl)(Cl)Cl` (centres undefined), the inhibition was inactive: 0.5%.

Turning to `O=P(Nc1nccs1)(c1ccccc1)c1ccccc1`, the inhibition was inactive: 16.3%.

Regarding `O=C(OC1CN2CCC1CC2)c1cccc(Cl)c1` (centres undefined), the inhibition was inactive: 3.04%.

Turning to `C(Cc1nn[nH]n1)Cc1nn[nH]n1`, the inhibition is inactive: 1.33%.

On to `CC(=O)NC(SC(=S)N(C)C)C(Cl)(Cl)Cl` (centres undefined), for which the inhibition is inactive: 4.74%.

Take `O=P(Nc1ccccn1)(c1ccc(Br)cc1)c1ccc(Br)cc1`: the inhibition was inactive: -1.89%.

As to `Cc1ccc(OCC(=O)OC2CN3CCC2CC3)cc1` (centres undefined), the inhibition was inactive: -0.33%.

Turning to `O=P1(Nc2ccc(Br)cn2)COc2ccccc2OC1`, the inhibition was inactive: 1.39%.

Turning to `O=P1(Nc2ncccn2)COc2ccccc2OC1`, the inhibition is inactive: 4.8%.

For `CN(C)C1(CNC(=O)c2ccc(S(C)(=O)=O)cc2)CCCCC1`, the inhibition is inactive: -24.3%.

As for `CC1CCC(C(C)C)C(OP(=O)(Nc2ccccn2)c2ccccc2)C1` (centres undefined), the inhibition is inactive: 8.83%.

In the case of `Cc1nn(-c2ccccc2)c2c1P(=O)(N1CCOCC1)N(C)C(c1ccccc1)=N2` (centres undefined), the inhibition is inactive: -4.78%.

`CC(C)/C=N\N=C(\N)N[N+](=O)[O-]`: the inhibition was inactive: -6.91%.

As for `CC1(CBr)Cn2c(nc3ccccc3c2=O)S1` (centres undefined), the inhibition is inactive: -4.86%.

As for `Clc1n[nH]nc1-c1nn[nH][15n]1`, the inhibition was inactive: -2.02%.

For `O=P1(Nc2ccccn2)COc2ccccc2OC1`, the inhibition was inactive: -9.71%.

For `CCOP(=O)(Nc1cccc2ccccc12)OCC`, the inhibition is inactive: -3.29%.

Turning to `COc1cc(C2NCCC3(OCCO3)C2(C)C)cc(OC)c1OC` (centres undefined), the inhibition was inactive: -22.1%.

As for `Cc1ccc(NCCc2c([N+](=O)[O-])cc([N+](=O)[O-])cc2[N+](=O)[O-])cc1`, the inhibition is inactive: -16.6%.

For `Cc1cccc(OCC(=O)OC2CN3CCC2CC3)c1` (centres undefined), the inhibition is inactive: -6.33%.

As for `COc1cc(C(=O)NCC2(N3CCOCC3)CCCCC2)cc(Cl)c1OC(C)C`, the inhibition is inactive: -2.28%.

For `CCOP1(=S)c2c(C)nn(CCC#N)c2N=C(c2ccc(F)cc2)N1C` (centres undefined), the inhibition is inactive: -2.49%.

For the compound `O=[N+]([O-])c1ccc2c(c1)nnn2O`, the inhibition was inactive: -1.39%.

`O=P(Nc1nccs1)(Oc1ccccc1)Oc1ccccc1`: the inhibition was inactive: 0.4%.

With `O=P(Nc1nccs1)(c1ccccc1)c1nc2ccccc2s1` (centres undefined), the inhibition was inactive: 7.68%.

On to `CCOP1(=S)c2c(C)nn(CCC#N)c2N=C(c2ccccc2F)N1C` (centres undefined), for which the inhibition was inactive: -0.75%.

`O=[N+]([O-])c1cc([N+](=O)[O-])c(-c2ccn[nH]2)s1`: the inhibition was inactive: -1.72%.

`CC(C)NC(=O)NP(=O)(Oc1ccccc1)Oc1ccccc1`: the inhibition is inactive: 8.37%.

Consider `CCN(CC)C(=S)SC(NC=O)C(Cl)(Cl)Cl` (centres undefined), for which the inhibition is inactive: -12.8%.

Take `ClCCSc1nnc(-c2cccnc2)o1`: the inhibition is inactive: -7.77%.

Turning to `Cc1ccc2nc3c(c(C)c2c1)CC(C(Cl)Cl)S3` (centres undefined), the inhibition was inactive: 5.78%.

For `COc1ccc(N/C(=N/P(=O)(N2CCOCC2)N2CCOCC2)N2CCOCC2)cc1`, the inhibition was inactive: 4.3%.

In the case of `COc1ccc2nc(NP(=O)(c3ccccc3)c3ccccc3)sc2c1`, the inhibition is inactive: -2.58%.

Regarding `Cc1c2c(nc3ccccc13)SC(C(Cl)Cl)C2` (centres undefined), the inhibition was inactive: 14.5%.

On to `Cc1cc(=O)[nH]c(N[N+](=O)[O-])n1`, for which the inhibition was inactive: -16.7%.

Turning to `O=C(OC1CN2CCC1CC2)C12CC3CC(CC(C3)C1)C2` (centres undefined), the inhibition was inactive: -21.3%.

As to `CCC(C)N(CC(C)C)C(=S)SC(NC(C)=O)C(Cl)(Cl)Cl` (centres undefined), the inhibition is inactive: 10.6%.

Turning to `O=C(COc1ccccc1)OC1CN2CCC1CC2` (centres undefined), the inhibition is inactive: 4.72%.

Take `COP1(=S)c2c(C)nn(CCC#N)c2N=C(c2ccc(F)cc2)N1C` (centres undefined): the inhibition is inactive: -1.61%.

`O=P(Nc1ccccn1)(c1cccc2ccccc12)c1cccc2ccccc12`: the inhibition was inactive: 12.5%.

Turning to `Cc1cc(SC(NC=O)C(Cl)(Cl)Cl)ncn1` (centres undefined), the inhibition is inactive: 0.79%.

Consider `Cc1cc(SC(NC(=O)c2ccccc2)C(Cl)(Cl)Cl)nc(C(C)C)n1` (centres undefined), for which the inhibition is inactive: 11.6%.

The record behind these values is PubChem BioAssay AID861 (The Scripps Research Institute Molecular Screening Center, 2007).
